pKi: −log10 of the molar value. Read-outs that look alike come from different tables or passages of the source.

Protein sequences, listed by entry. Tags and fused reporters are not part of them. Residues count along the entry.
UniProt O60674, 812-1132: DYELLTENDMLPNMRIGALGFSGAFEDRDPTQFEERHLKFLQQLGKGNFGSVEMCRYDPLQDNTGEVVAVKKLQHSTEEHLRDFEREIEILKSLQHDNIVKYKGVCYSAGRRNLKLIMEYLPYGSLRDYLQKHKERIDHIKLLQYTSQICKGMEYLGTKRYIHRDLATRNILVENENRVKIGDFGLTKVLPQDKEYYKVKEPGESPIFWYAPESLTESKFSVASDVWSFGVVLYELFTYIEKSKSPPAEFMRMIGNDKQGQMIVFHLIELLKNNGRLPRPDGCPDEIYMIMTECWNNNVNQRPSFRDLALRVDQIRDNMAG
UniProt P23458, 852-1154: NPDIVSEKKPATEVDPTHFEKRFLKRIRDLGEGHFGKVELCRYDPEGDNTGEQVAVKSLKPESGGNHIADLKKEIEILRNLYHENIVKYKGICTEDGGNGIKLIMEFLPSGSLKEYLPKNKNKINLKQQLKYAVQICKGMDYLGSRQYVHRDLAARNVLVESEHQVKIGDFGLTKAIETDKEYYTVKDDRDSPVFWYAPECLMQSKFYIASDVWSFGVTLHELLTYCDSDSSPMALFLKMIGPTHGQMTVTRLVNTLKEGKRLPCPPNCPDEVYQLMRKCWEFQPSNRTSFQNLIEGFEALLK
UniProt P52333, 783-1124: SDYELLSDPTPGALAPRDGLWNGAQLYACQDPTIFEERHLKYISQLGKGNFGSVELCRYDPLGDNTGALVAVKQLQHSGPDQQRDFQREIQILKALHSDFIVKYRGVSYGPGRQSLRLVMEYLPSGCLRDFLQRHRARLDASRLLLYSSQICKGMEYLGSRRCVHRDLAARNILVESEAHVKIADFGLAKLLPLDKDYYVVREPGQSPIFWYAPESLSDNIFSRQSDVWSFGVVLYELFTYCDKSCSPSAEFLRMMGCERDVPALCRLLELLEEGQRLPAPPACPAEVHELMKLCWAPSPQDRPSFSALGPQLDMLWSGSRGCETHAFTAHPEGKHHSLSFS

Common to all, as to format: biochemical
The target of one test is T1, JAK2 (Homo sapiens, UniProt O60674).
T1 construct: made in house; host or cells: SF9 insect cells (baculovirus)
The test is described as follows: JAK2 inhibition (Table 4).

The target of a further test is T2, JAK1 (Homo sapiens, UniProt P23458).
T2 construct: made in house; host or cells: SF9 insect cells (baculovirus)
The test is described as follows: JAK1 inhibition (Table 4).

A further test concerns the target T3, TYK2 (Homo sapiens, UniProt P29597).
T3 construct: made in house; host or cells: SF9 insect cells (baculovirus)
T3 sequence (P29597 873-1187): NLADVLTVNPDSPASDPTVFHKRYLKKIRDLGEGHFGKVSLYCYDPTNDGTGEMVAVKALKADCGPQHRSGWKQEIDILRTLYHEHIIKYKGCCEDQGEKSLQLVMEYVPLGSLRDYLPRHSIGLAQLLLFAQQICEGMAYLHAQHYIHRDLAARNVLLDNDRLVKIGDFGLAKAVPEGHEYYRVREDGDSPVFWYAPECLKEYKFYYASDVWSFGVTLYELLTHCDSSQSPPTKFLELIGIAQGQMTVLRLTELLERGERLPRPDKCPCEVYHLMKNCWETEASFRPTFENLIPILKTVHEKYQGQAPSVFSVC
The test is described as follows: TYK2 inhibition (Table 4).

For a further test, the target named is T4, JAK3 (Homo sapiens, UniProt P52333).
T4 construct: made in house; host or cells: SF9 insect cells (baculovirus)
The test is described as follows: JAK3 inhibition (Table 4).

As for `C[C@@H](O)c1nc2cnc3[nH]ccc3c2n1C1CCC(CCC#N)CC1` (stereo partly drawn) [Example 1007, 3-{4-[2-((R)-1-Hydroxy-ethyl)-6H-1,3,5,6-tetraaza-as-indacen-1-yl]-cyclohexyl}-propionitrile], the pKi (usually −log10 of the Ki, conventionally taken in molar units) on JAK2 (read-out: JAK2 Ki) is 7.71; at JAK1 (JAK1 Ki) it was 8.08; at TYK2 (read-out: TYK2 Ki), 7.94.
For the compound `Cc1nc2cnc3[nH]ccc3c2n1C1CCOCC1` [Example 540, 2-Methyl-1-(tetrahydro-pyran-4-yl)-1,6-dihydro-1,3,5,6-tetraaza-as-indacene], the results for the pKi on JAK3 (JAK3 Ki) and on TYK2 (TYK2 Ki) were 7.78 and 7.45, respectively.
`CO[C@H]1CC[C@H](n2c([C@@H](C)O)nc3cnc4[nH]ccc4c32)CC1` [Example 635, Trans (R)-1-[1-(4-methoxy-cyclohexyl)-1,6-dihydro-1,2,3,5,6-tetraaza-as-indacen-2-yl]-ethanol]: the pKi is 7.12 at JAK2 (read-out: JAK2 Ki), 8.39 on JAK1 (JAK1 Ki) and 7.95 at TYK2 (read-out: TYK2 Ki).
In the case of “1-Cyclohexyl-2-methyl-1,6-dihydro-1,2,3,5,6-tetraaza-as-indacene-d11 [Example 673]”, the pKi on JAK2 (read-out: JAK2 Ki) was 8.49; at JAK3 (read-out: JAK3 Ki), 8.40; on JAK1 (read-out: JAK1 Ki), 9.16; on TYK2 (read-out: TYK2 Ki) it was 8.67.
As for `N[C@H]1CC[C@H](n2nnc3cnc4[nH]ccc4c32)CC1` [Example 279, 4-(6H-1,2,3,5,6-Pentaaza-as-indacen-1-yl)-cyclohexylamine], the results for the pKi on JAK2 (read-out: JAK2 Ki), on JAK1 (JAK1 Ki) and at TYK2 (read-out: TYK2 Ki) were 7.52, 8.02 and 6.91, respectively.
Consider `C[C@@H](O)c1nc2cnc3[nH]ccc3c2n1[C@H]1CC[C@H](CCC#N)CC1` [Example 647, Trans 3-{4-[2-((R)-1-Hydroxy-ethyl)-6H-1,2,3,5,6-tetraaza-as-indacen-1-yl]-cyclohexyl}-propionitrile], for which the pKi on JAK2 (read-out: JAK2 Ki) was 8.42; on JAK3 (read-out: JAK3 Ki), 8.11; at JAK1 (JAK1 Ki), 9.47; at TYK2 (read-out: TYK2 Ki), 8.79.
For the compound `N#CCCN[C@H]1CC[C@H](n2nnc3cnc4[nH]ccc4c32)CC1` [Example 280, 3-[4-(6H-1,2,3,5,6-Pentaaza-as-indacen-1-yl)-cyclohexylamino]-propionitrile], the pKi is 7.86 on JAK2 (JAK2 Ki), 8.36 at JAK1 (JAK1 Ki) and 7.21 at TYK2 (read-out: TYK2 Ki).
In the case of `O[C@H]1CC[C@H](n2nnc3cnc4[nH]ccc4c32)CC1` [Example 546, trans 4-(6H-1,2,3,5,6-Pentaaza-as-indacen-1-yl)-cyclohexanol], the pKi on JAK2 (read-out: JAK2 Ki) is 7.71; at JAK1 (JAK1 Ki), 8.00; at TYK2 (read-out: TYK2 Ki), 7.13.
